## Ab-14 light chain CDR variants: yeast mating affinities

Values reported by Li et al. 2023, doi:10.1038/s41467-023-39022-2 (FLAb copy).

All variants were tested on one target, the spike HR2 peptide PDVDLGDISGINAS (SARS-CoV-2).

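The starting antibody came from a phage panning campaign against this peptide. These sequences belong to a second round, designed from the earlier measurements on random variants of the parent. Several design methods are mixed in this list. In AlphaSeq, yeast of one mating type display the scFv and yeast of the other type display the target. The frequency of each diploid, read from paired DNA barcodes, reflects how well the two displayed proteins bind. A regression on co-assayed BCL2-family reference pairs converts the normalised counts of each replicate to an apparent Kd. Each pool was mated in six replicate cultures.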

The variants keep the heavy chain, the linker and the frameworks of Ab-14 (scFv order VH, a (GGGGS)3 linker, VL).
VH: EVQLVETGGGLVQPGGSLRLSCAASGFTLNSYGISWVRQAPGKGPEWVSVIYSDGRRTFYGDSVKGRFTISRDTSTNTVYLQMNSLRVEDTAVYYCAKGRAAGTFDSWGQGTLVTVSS
VL: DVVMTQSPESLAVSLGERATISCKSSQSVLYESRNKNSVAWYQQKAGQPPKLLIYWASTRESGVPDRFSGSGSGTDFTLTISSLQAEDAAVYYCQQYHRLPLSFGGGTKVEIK

Each variant is given by its three light chain CDRs, as the data file delimits them; those of the parent are KSSQSVLYESRNKNSVA, WASTRES, QQYHRLPLS. Affinities are written as log10 Kd with Kd in nM; a lower number is a better binder. The mean shown is taken over the replicates in which the pair was detected. "no signal" means that the variant was in the library but no mating with the target was seen in any replicate; the authors take this as a sign of poor binding, and no number exists.

| CDR-L1 | CDR-L2 | CDR-L3 | mean, log10 nM | seen in |
|---|---|---|---|---|
| KFSQSVLYEARNKNSVA | GASTRAD | QQYHRLPLS | -0.02 | 6 of 6 |
| VFQEMVQGVEQDYNNIA | ENSYASR | QQYFRLPLA | no signal | 0 of 6 |
| KSSHSVLYMSRNKNSVA | WASTRES | QQYHRLPLG | 1.68 | 1 of 6 |
| MISGSVMSESRLRNSVA | QTTTRES | QQYDRLPLS | 0.41 | 6 of 6 |
| KFSQSVLYESRNKNSVA | NASQRLS | QQYHRLPLS | 0.14 | 6 of 6 |
| KSSISYLYESPNKNSVA | NASTRES | QQYHRLPLS | 0.02 | 6 of 6 |
| KLSQSVLVGDRNKSSVA | QASTREM | QQYHRLPLS | 0.09 | 6 of 6 |
| VLGAEYGNMVMKKNSIA | DNSTRGE | QQYDRLPLS | 1.31 | 5 of 6 |
| KLPQSQLYESRNKNSVA | EASQRES | QQYHRLPLS | -0.41 | 6 of 6 |
| KFSQMVLTGVYVSNSVA | QMSTRVN | QQYHRLPLM | 0.98 | 6 of 6 |
| HISMSMNWLSRNKNSIA | EESTRES | QQYHRLPLS | no signal | 0 of 6 |
| KSQQGVLYESRNWNSVA | GASTRES | QQYHRLPLS | -0.06 | 6 of 6 |
| KSSQSVLYESRNKNSVA | WASTRES | QQYVRLPLA | 0.96 | 1 of 6 |
| KLSQQGHYGSRNANSVA | NASTREQ | QQYHRLPLS | 0.04 | 6 of 6 |
| KSSQSVLYESANKNVVA | GASTAES | QQYHRLELS | no signal | 0 of 6 |
| TISQMFLGEYRNRNSVA | QASTRES | QSYDRLPLS | -0.22 | 6 of 6 |
| HLHTIMYTEGIGTNSIA | DANLHVD | QQYFRLPIS | 0.56 | 6 of 6 |
| KISSMSNHQSSVANNVA | ENVTREE | QQYFRLPLA | 2.11 | 4 of 6 |
| KVSESVLYESRNKNSVA | NASTRES | QEYHRLPLS | 0.19 | 6 of 6 |
| KLSQSVLYESRNKNSVA | DASTRFS | QQYHRLPLS | -0.04 | 6 of 6 |
| KMEMDFRGNDVNRNSIA | SDEAVTR | QHYARLPLI | 1.19 | 1 of 6 |
| KSLQSVLYESRNKNSVA | QASTREQ | QQYHFLPLS | no signal | 0 of 6 |
| FSPQSVLYESRNFNSVA | HASTRED | QQYHRLPLS | 0.46 | 6 of 6 |
| KSSQSVLAESRNKNSVA | MASTRSS | QQYHRLPLS | 1.19 | 6 of 6 |
| IVSQLMLWGHLAKNSIA | EAQTRVN | QQYDRLPLI | 2.35 | 3 of 6 |
| MISQLFMYGSRNYNSVA | QASKRES | QQYDRLPLI | 1.51 | 4 of 6 |
| KFSQSVLYESTTANSVA | NASTRES | QQYHRLPLS | 0.15 | 6 of 6 |
| MLGDVGFGLTRKEDSVA | DNDTREE | QQYDRLPLS | 2.02 | 6 of 6 |
| KFSQSVLYESRNKNSVA | NASKRES | QQYHRLPLS | -0.15 | 6 of 6 |
| HMMHNQLDYKNRENNIA | HESMRLV | QQYSQLPLT | 0.62 | 6 of 6 |
| TISMSMNWLTFNKNNIA | EESTRED | QQYDRLPLS | 1.89 | 3 of 6 |
| KIGMTLNQMMHKKNNVA | DLVMREN | QQYFRLPLS | 0.79 | 6 of 6 |
| SLTIYTDENGLKHQSIA | GAGNRML | QQYHRLPLT | 0.34 | 6 of 6 |
| KIGMTLNTLLHQKNNVA | DLVTREN | QQYSRLPLS | 1.03 | 6 of 6 |
| ILSASELYEDRMKNSVA | NASQRES | QQYHRLPLS | 0.22 | 6 of 6 |
| KMSQSELYESRNKNSVA | NASTREE | QQYHRLPLS | -0.28 | 6 of 6 |
| KVSQSWLYESRNKNSVA | GASTREV | QQYHRLPLS | 0.06 | 6 of 6 |

Second part, the sequence after the result:

| mean, log10 nM | seen in | CDR-L1 | CDR-L2 | CDR-L3 |
|---|---|---|---|---|
| 1.61 | 3 of 6 | KSSSNVLYESRNKDSVA | WASTRES | QQYFRLPLE |
| 1.01 | 6 of 6 | MISDLTMYGSRNVNSVA | DLSNRGS | QQYHRLPLS |
| 0.16 | 6 of 6 | HSSPSVLYESRNKNSVA | NASTREE | QQYHRLPLS |
| 0.26 | 6 of 6 | KSSISYLEESRNKNSVA | EASTREM | QQYHRLPLS |
| 1.58 | 6 of 6 | KIQHQHVGNWKTANNIA | QGDQRCQ | QSYDRLPLS |
| 0.80 | 6 of 6 | KMSQSMLYESRAFNSVA | NASNRES | QQYHRLPLS |
| -0.49 | 6 of 6 | KFSQSVLQESRNQNSVA | NASTRES | QQYHRLPLS |
| -0.36 | 6 of 6 | KLPQSNLYESRNKNSVA | NASTRMS | QQYHRLPLS |
| 1.58 | 6 of 6 | KSSQSVLYESQEKNSVA | WASTRES | QQYHRLPLS |
| 0.89 | 6 of 6 | MVTQMAMTGMKNKRSVA | NAETREY | QQYHRLPLI |
| 0.59 | 6 of 6 | IVSQLMLWGMHVKNSIA | EAMTRLN | QQYDRLPLF |
| -0.04 | 6 of 6 | KLSQSVLMESRNKNSVA | NASTRMS | QQYHRLPLS |
| 0.48 | 6 of 6 | KLEQSVQMESRWKNSVA | NASTRES | QQYHRLPLS |
| 3.12 | 1 of 6 | KWSQSVLDNSRNKNSVA | NASTRES | QQEGRLPLS |
| 0.59 | 6 of 6 | NLSYLQGEPTNSVNNVA | QTSKRAP | QYYQRLPLC |
| 1.02 | 6 of 6 | KSSHSVLHESRNKNSVA | AASTRES | QQYHRLPLS |
| 0.46 | 6 of 6 | MISQVMNTLTRNGNNVA | DLTERTK | QQYFRLPLS |
| 1.54 | 6 of 6 | TISQSVNMTSRGKNSVA | QAEMRES | QQYDRLPLS |
| 0.65 | 6 of 6 | MMTWGDDMTTGHQNAIA | HAHERAT | QQYALLPLS |
| 0.45 | 6 of 6 | KLLQVTENMMLNRNSVA | HMSTRED | QQYHRLPLS |
| 0.08 | 6 of 6 | KSSISGLYESRNTNSVA | EASTRES | QQYHRLPLS |
| -0.37 | 6 of 6 | KLSQSVLYESRLKNSVA | DASTRES | QQYHRLPLS |
| no signal | 0 of 6 | KMEWYSQDNRLTISAIA | EASTIYQ | QQYGRLPLS |
| 1.55 | 4 of 6 | KSSISYLYESENKLSVA | EASQRES | QQYHRLPLS |
| 0.62 | 6 of 6 | KLQQFVEYESRNKNSVA | HASTRLS | QQYHRLPLS |
| 0.50 | 6 of 6 | VVQQNFIDGMERQYSVA | ETSRVME | QQYFHLPLI |
| no signal | 0 of 6 | KSSQSFLYESRNKNSVA | GASTRES | QCYHRLTLS |
| 0.98 | 6 of 6 | KFSQSVLYESRVKNSVA | DASTRES | QQYHRLPLS |
| 0.43 | 6 of 6 | KIGMTLNQLMHKKNNVA | DLVTRET | QQYFRLPLS |
| no signal | 0 of 6 | KSSKSVLYCSRNKNSVA | WANTRER | QQYHRLPLS |
| 0.02 | 6 of 6 | ILYESVGTLSRNRNSVA | DNSTREK | QQYDRLPLS |
| 0.13 | 6 of 6 | KSSQSELYESRNFNSVA | DASTRES | QQYHRLPLS |
| 0.44 | 6 of 6 | TIGPMLMTESRNKNSVA | GMQTRER | QQYNRLPLS |
| 0.23 | 6 of 6 | MISNVMNSLTHLGNNVA | DLQERED | QQYFRLPLS |
| no signal | 0 of 6 | KSSQSVLYESRNKNSVA | WVSTRQS | QQYHRLPLS |
| -0.22 | 6 of 6 | KVDQSQDYESRNKNSVA | QASQREQ | QQYHRLPLY |
| 0.45 | 6 of 6 | TISQSAGQESHNKNSVA | DLSVRGS | QQYHRLPLS |

The first 5 entries again:

| CDR-L1 | CDR-L2 | CDR-L3 | mean, log10 nM | seen in |
|---|---|---|---|---|
| KFSQSVLYEARNKNSVA | GASTRAD | QQYHRLPLS | -0.02 | 6 of 6 |
| VFQEMVQGVEQDYNNIA | ENSYASR | QQYFRLPLA | no signal | 0 of 6 |
| KSSHSVLYMSRNKNSVA | WASTRES | QQYHRLPLG | 1.68 | 1 of 6 |
| MISGSVMSESRLRNSVA | QTTTRES | QQYDRLPLS | 0.41 | 6 of 6 |
| KFSQSVLYESRNKNSVA | NASQRLS | QQYHRLPLS | 0.14 | 6 of 6 |

In the paper, a design with two or fewer of six values counts as a poor binder. As a blank, each scFv also met three strains without target: over all light chain designs, 4% of these pairings were detected, typically at 2.64 and seldom below 1.59. Values of this round are not directly comparable with the first-round values of the same sequences. Of ten entries with the parent sequence, four were seen in most replicates (averages 0.34 to 2.37), three in one and three in none, so single entries are noisy.